PubChem BioAssay AID2300 (The Scripps Research Institute Molecular Screening Center, 2010)
Only a part is listed here, and it is no random draw. Some salts or complexes appear as unconnected parts, following the source record. Active and inactive are the calls of the source.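 The calls were made as follows: active = percent inhibition above the cutoff of mean plus 3 SD of all tested compounds, set per screening campaign (cut at about 20% in these data); inactive = the rest.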

Amino acid sequences for entries named in this document (tags omitted).
UniProt Q9Y5X4, whole entry: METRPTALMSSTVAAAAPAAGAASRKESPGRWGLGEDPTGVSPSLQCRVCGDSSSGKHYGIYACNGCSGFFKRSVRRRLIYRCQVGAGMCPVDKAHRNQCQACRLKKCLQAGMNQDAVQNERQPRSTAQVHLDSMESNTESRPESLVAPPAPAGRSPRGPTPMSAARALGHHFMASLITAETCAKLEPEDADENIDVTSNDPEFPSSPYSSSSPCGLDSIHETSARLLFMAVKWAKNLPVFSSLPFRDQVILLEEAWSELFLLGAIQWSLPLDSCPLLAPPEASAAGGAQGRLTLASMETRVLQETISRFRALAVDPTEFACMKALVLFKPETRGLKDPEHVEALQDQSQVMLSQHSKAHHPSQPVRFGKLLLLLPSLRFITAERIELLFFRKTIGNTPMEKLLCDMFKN

Biological target: Photoreceptor-specific nuclear receptor (Homo sapiens) (UniProt Q9Y5X4)
Test: disruption of NR2E3 corepressor interaction – biochemical, TR-FRET, GST-NR2E3, biotin-RetCOR, NR2E3 agonist project, primary screen (AID 2300);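 also: 0% = DMSO wells and 100% = biotin wells as full block of FRET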
Conditions: 1536-well, at 4.78 µM, active compounds read high
How it was run: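 Assay system: NR2E3–RetCOR corepressor complex. Quantity: 1.35 nM GST-NR2E3. Buffer or medium: pH 7.5 Tris-based buffer. Reagent: biotinylated RetCOR corepressor at 7 nM final. Schedule: 5 h at 4 °C. Detection: TR-FRET, emission read at 617 and 671 nm. Replicates: one well per compound, singlicate testing.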

| Structure (SMILES) | inhibition of corepressor binding |
| --- | --- |
| CN(C)C(=O)c1c([N+](=O)[O-])cc([N+](=O)[O-])cc1[N+](=O)[O-] | inactive: -0.19% |
| CP(=O)(Nc1ccc(Cl)cc1)Oc1ccc(F)cc1 (stereo not drawn) | inactive: 0.7% |
| CC(C)(C)c1ccc(OP(C)(=O)O)cc1 | inactive: 3.39% |
| COc1ccccc1OP(C)(=O)Nc1ccccc1Br (stereo not drawn) | inactive: -1.46% |
| CCc1ccc(OP(C)(=O)Nc2cccnc2)cc1 (stereo not drawn) | inactive: 0.26% |
| CP(=O)(Oc1ccccc1)N1CCOC1=O (stereo not drawn) | inactive: 0.07% |
| O=C(OCCCN1CCCC1)C(O)(c1ccccc1)C1CCCCC1 (stereo not drawn) | inactive: -2.2% |
| COc1ccccc1OP(C)(=O)Nc1c(C)n(C)n(-c2ccccc2)c1=O (stereo not drawn) | inactive: 2.42% |
| COc1ccc(OP(C)(=O)Nc2ccc(Br)cc2)cc1 (stereo not drawn) | inactive: -1.75% |
| CCN(CC)CC(O)COC(=O)C(O)(c1ccccc1)C1CCCCC1 (stereo not drawn) | inactive: 2.94% |
| CP(=O)(OC12CC3CC(CC(C3)C1)C2)OC12CC3CC(CC(C3)C1)C2 | inactive: 0.93% |
| CCOC(=O)c1ccc(NP(C)(=O)Oc2ccc(Cl)cc2)cc1 (stereo not drawn) | inactive: 2.09% |
| Nc1ccc2c(ccc3cccnc32)n1.O=[N+]([O-])c1cc([N+](=O)[O-])c(O)c([N+](=O)[O-])c1 | inactive: 3.95% |
| CP(=O)(OCCOc1ccccc1)OCCOc1ccccc1 | inactive: 0% |
| CP(=O)(Nc1ccc(Cl)cc1Cl)Oc1ccccc1 (stereo not drawn) | inactive: 3.06% |
| Cc1nc2ccc3ccccc3c2o1.O=[N+]([O-])c1cc([N+](=O)[O-])c(O)c([N+](=O)[O-])c1 | inactive: 2.4% |
| COc1ccc(OP(C)(=O)Nc2ccccc2Br)cc1 (stereo not drawn) | inactive: 5.5% |
| COc1ccccc1OP(C)(=O)Nc1ccc(C)c(C)c1 (stereo not drawn) | inactive: 3.67% |
| Cc1cc(C)cc(OP(C)(=O)Nc2cccc(C(F)(F)F)c2)c1 (stereo not drawn) | inactive: 0.2% |
| CCc1ccc(OP(C)(=O)O)cc1 | inactive: 1.99% |
| COc1ccccc1OP(C)(=O)Nc1ccc(C)cc1C (stereo not drawn) | inactive: -0.51% |
| CP(=O)(Nc1ccccn1)Oc1ccccc1 (stereo not drawn) | inactive: -4.9% |

| Structure (SMILES) | inhibition of corepressor binding |
| --- | --- |
| O=[N+]([O-])c1cc([N+](=O)[O-])c(Nc2ccccn2)c([N+](=O)[O-])c1 | inactive: 4.9% |
| Cc1c(NP(C)(=O)Oc2ccc(C(C)C)cc2)c(=O)n(-c2ccccc2)n1C (stereo not drawn) | inactive: 1.26% |
| CN(C)CCOC(=O)C(O)(c1ccccc1)C1CCCC1 (stereo not drawn) | inactive: -0.59% |
| COc1ccc(OP(C)(=O)Nc2ccccn2)cc1 (stereo not drawn) | inactive: -3.51% |
| COc1ccccc1OP(C)(=O)Nc1ccc(Br)cc1 (stereo not drawn) | inactive: 1.24% |
| COc1ccc2c(c1O)-c1c(O)c(OC)cc3c1[C@H](C2)[N+](C)(C)CC3.O=[N+]([O-])c1cc([N+](=O)[O-])c([O-])c([N+](=O)[O-])c1[O-] | inactive: -3.48% |
| O=C(OCCN1CCN(CCOCc2ccccc2)CC1)C(O)(c1ccccc1)c1ccccc1 | inactive: -1.18% |
| O=C(OC1CN2CCC1CC2)c1ccc([N+](=O)[O-])cc1 (stereo not drawn) | inactive: 0.82% |
| CC(C)c1ccc(OP(C)(=O)Nc2ccc(SC(F)(F)F)cc2)cc1 (stereo not drawn) | inactive: -3.93% |
| CP(=O)(Nc1ccccc1F)Oc1ccccc1 (stereo not drawn) | inactive: 0.74% |
| O=[N+]([O-])c1cc([N+](=O)[O-])c(OC2CCCCC2O)c([N+](=O)[O-])c1 (stereo not drawn) | inactive: -2.11% |
| CCCCCOc1ccc(NP(C)(=O)Oc2ccc(Cl)cc2Cl)cc1 (stereo not drawn) | inactive: 0.75% |
| CP(=O)(Nc1ccccc1)Oc1ccc(F)cc1 (stereo not drawn) | inactive: 1.02% |
| CCN(CC)CCCOC(=O)C(O)(c1ccccc1)C1CCCCC1 (stereo not drawn) | inactive: 3.77% |
| COc1ccc(OP(C)(=O)Nc2ccc(SC(F)(F)F)cc2)cc1 (stereo not drawn) | inactive: -2.86% |
| CCOC(=O)c1ccc(NP(C)(=O)Oc2ccc(F)cc2)cc1 (stereo not drawn) | inactive: -4.13% |
| O=[N+]([O-])c1cc([N+](=O)[O-])c(NCC2CCS(=O)(=O)C2)c([N+](=O)[O-])c1 (stereo not drawn) | inactive: 1.23% |
| COc1ccc(NP(C)(=O)Oc2ccccc2OC)cc1 (stereo not drawn) | inactive: -0.69% |
| CN(C)CCOC(=O)C(O)(c1ccccc1)C1CCCCC1 (stereo not drawn) | inactive: 1.73% |
| COc1ccc(OP(C)(=O)Nc2cccc(Br)c2)cc1 (stereo not drawn) | inactive: 3.01% |
| Cc1ccccc1NP(C)(=O)Nc1ccccc1C | inactive: -1.03% |
| CP(=O)(Nc1ccc2c(c1)OCCO2)Oc1ccccc1 (stereo not drawn) | inactive: -0.3% |

| Structure (SMILES) | inhibition of corepressor binding |
| --- | --- |
| CCOP(C)(=S)SCC(=O)NC(C)(CC)C(=O)O (stereo not drawn) | inactive: -1.3% |
| CP(=O)(Nc1ccc(SC(F)(F)F)cc1)Oc1ccc(F)cc1 (stereo not drawn) | inactive: 1.67% |
| Cc1nc2ccc3ccccc3c2s1.O=[N+]([O-])c1cc([N+](=O)[O-])c(O)c([N+](=O)[O-])c1 | inactive: 7.94% |
| O=[N+]([O-])c1cc([N+](=O)[O-])c(-c2cnn(-c3ccccc3)c2)c([N+](=O)[O-])c1 | inactive: 4.66% |
| O=[N+]([O-])c1cc([N+](=O)[O-])c(-n2nnc3ccccc32)c([N+](=O)[O-])c1 | inactive: -0.8% |
| CP(=O)(Nc1ccc(SC(F)(F)F)cc1)Oc1ccccc1 (stereo not drawn) | inactive: -0.55% |
| CCCOc1ccc(NP(C)(=O)Oc2ccc(Cl)cc2)cc1 (stereo not drawn) | inactive: -1.67% |
| COc1ccccc1OP(C)(=O)Nc1c(C)cccc1C (stereo not drawn) | inactive: 4.21% |
| CN1CCCCC1COC(=O)C1(O)c2ccccc2CCc2ccccc21 (stereo not drawn) | inactive: 4.3% |
| CCOC(=O)C(CC)C1=NC(C)(C)Cc2ccccc21.O=[N+]([O-])c1cc([N+](=O)[O-])c(O)c([N+](=O)[O-])c1 (stereo not drawn) | inactive: -2.5% |
| O=[N+]([O-])c1cc([N+](=O)[O-])c(Nc2nnnn2CCO)c([N+](=O)[O-])c1 | inactive: -0.76% |
| CC1=C2N=C(C=C3N=C(C(C)=C4[N-][C@@](C)([C@@H]5N=C1[C@](C)(CCC(=O)NC[C@@H](C)OP(=O)([O-])O[C@H]1[C@@H](O)[C@@H](n6cnc7cc(C)c(C)cc76)O[C@@H]1CO)[C@H]5CC(N)=O)[C@@](C)(CC(N)=O)[C@@H]4CCC(N)=O)[C@@](C)(CC(N)=O)[C@@H]3CCC(N)=O)C(C)(C)[C@@H]2CCC(N)=O.[C-]#N.[Co+3] | inactive: 8.59% |
| CC1=NCCc2c1[nH]c1ccccc21.O=[N+]([O-])c1cc([N+](=O)[O-])c(O)c([N+](=O)[O-])c1 | inactive: -1.44% |
| O=C(O)c1cccc(Nc2c([N+](=O)[O-])cc([N+](=O)[O-])cc2[N+](=O)[O-])c1 | inactive: 3.13% |
| CP(=O)(Nc1cccc(Br)c1)Oc1ccccc1 (stereo not drawn) | inactive: -3.99% |
| Cc1cc(C)cc(OP(C)(=O)Nc2ccccn2)c1 (stereo not drawn) | inactive: 1.59% |
| Cc1ccc(C)c(NP(C)(=O)Oc2ccccc2)c1 (stereo not drawn) | inactive: -2.45% |
| Cc1cc(C)cc(OP(C)(=O)Nc2ccc(C)cc2C)c1 (stereo not drawn) | inactive: -1.35% |
| CCOC(=O)c1ccc(NP(C)(=O)Oc2cc(C)cc(C)c2)cc1 (stereo not drawn) | inactive: 0.43% |
| COc1ccccc1OP(C)(=O)Nc1cccc(Br)c1 (stereo not drawn) | inactive: 0.08% |
| CCN(CC)CCCOC(=O)C(O)(c1ccccc1)c1ccccc1 | inactive: 0.7% |
| COc1ccc(OP(C)(=O)Nc2cccc(F)c2)cc1 (stereo not drawn) | inactive: 0.13% |

| Structure (SMILES) | inhibition of corepressor binding |
| --- | --- |
| COc1ccccc1OP(C)(=O)Nc1cc(Cl)ccc1C (stereo not drawn) | inactive: 1.67% |
| Cc1cc(C)cc(OP(C)(N)=O)c1 (stereo not drawn) | inactive: 3.1% |
| CCOC(=O)c1ccc(NP(C)(=O)Oc2ccccc2)cc1 (stereo not drawn) | inactive: -3.24% |
| Cc1ccc(NP(C)(=O)Oc2ccccc2)c(C)c1 (stereo not drawn) | inactive: -4.06% |
| COc1ccccc1OP(C)(=O)Nc1ccc(C)cc1 (stereo not drawn) | inactive: -2.46% |
| Cc1cccc(C)c1OP(C)(N)=O (stereo not drawn) | inactive: 0.54% |
| CC(C)(C)c1ccc(OP(C)(=O)Nc2ccc(SC(F)(F)F)cc2)cc1 (stereo not drawn) | inactive: -1.42% |
| O=[N+]([O-])c1ccc2c(c1)C=Nc1ccccc1O2 | inactive: 1.48% |
| O=[N+]([O-])c1cc([N+](=O)[O-])c(Nc2cccnc2)c([N+](=O)[O-])c1 | inactive: 6.41% |
| COc1ccccc1OP(C)(=O)Nc1ccccc1 (stereo not drawn) | inactive: 0.61% |
| CP(=O)(Nc1ccccc1Br)Oc1ccccc1 (stereo not drawn) | inactive: 2.21% |
| CP(=S)(Nn1cnnc1)Oc1ccccc1 (stereo not drawn) | inactive: -3.24% |
| CP(=O)(Nc1ccccn1)Oc1ccc(Cl)cc1 (stereo not drawn) | inactive: 0.45% |
| CCOP(C)(=S)SCC(=O)NC(C)C(=O)O (stereo not drawn) | inactive: 1.97% |
| CCOC(=O)c1ccc(NP(C)(=O)Oc2ccc(OC)cc2)cc1 (stereo not drawn) | inactive: 0.4% |
| O=[N+]([O-])c1cc([N+](=O)[O-])c(O)c([N+](=O)[O-])c1.c1ccc(Oc2ccncc2)cc1 | inactive: 0.36% |
| Cc1cc(C)cc(OP(C)(=O)Nc2ccc(SC(F)(F)F)cc2)c1 (stereo not drawn) | inactive: -0.87% |
| CCc1ccc(OP(C)(=O)N2CCN(c3ccc([N+](=O)[O-])cc3)CC2)cc1 (stereo not drawn) | inactive: -3.21% |
| CP(=O)(NC(=O)Nc1ccccc1)Oc1ccccc1 (stereo not drawn) | inactive: -0.26% |
| CP(=O)(Oc1ccccc1)OC(c1ccccc1)C(F)(F)F (stereo not drawn) | inactive: 0.54% |
| Cc1cccc(C)c1OP(C)(=O)Nc1ccc(SC(F)(F)F)cc1 (stereo not drawn) | inactive: 1.01% |
| CP(=O)(Nc1ccc(SC(F)(F)F)cc1)Oc1ccc(Cl)cc1 (stereo not drawn) | inactive: -0.58% |
